Earlier results as cited in patent US20170107257A1, “CYCLIC APELIN ANALOGS” (LANTHIOPEP B.V., priority 2014, published 2017).

Target: T1, hAPJ (Homo sapiens, UniProt P35414)
T1 sequence (P35414 1-380): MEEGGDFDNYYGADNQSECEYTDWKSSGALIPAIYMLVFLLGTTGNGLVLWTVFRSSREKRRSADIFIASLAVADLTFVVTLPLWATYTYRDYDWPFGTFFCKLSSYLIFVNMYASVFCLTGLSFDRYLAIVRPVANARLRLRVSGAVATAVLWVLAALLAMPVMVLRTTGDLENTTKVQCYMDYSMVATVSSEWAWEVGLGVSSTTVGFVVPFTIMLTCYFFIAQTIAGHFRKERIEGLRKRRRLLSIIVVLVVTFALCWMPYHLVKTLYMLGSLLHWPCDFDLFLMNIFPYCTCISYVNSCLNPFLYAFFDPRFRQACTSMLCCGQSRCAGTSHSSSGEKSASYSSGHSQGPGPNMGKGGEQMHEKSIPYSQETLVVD
Settings: read-out: EC50 activating the APJ receptor; cited from earlier work

For apelin-17, the EC50 is listed as 2.5 nM.
